{"sequences": {"note": "Protein sequences, listed by entry. Tags and fused reporters are not part of them.", "UniProt Q92847, whole entry": "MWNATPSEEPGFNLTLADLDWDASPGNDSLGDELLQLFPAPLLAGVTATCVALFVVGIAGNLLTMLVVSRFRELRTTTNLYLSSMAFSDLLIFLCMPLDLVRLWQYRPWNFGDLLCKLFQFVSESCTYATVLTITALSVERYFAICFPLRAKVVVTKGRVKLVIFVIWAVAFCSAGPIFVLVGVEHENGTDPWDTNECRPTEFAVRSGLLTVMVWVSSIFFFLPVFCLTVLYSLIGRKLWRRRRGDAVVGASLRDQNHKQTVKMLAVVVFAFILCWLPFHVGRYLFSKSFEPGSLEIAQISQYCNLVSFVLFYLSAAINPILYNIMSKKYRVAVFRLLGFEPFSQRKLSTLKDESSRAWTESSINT"}, "source": "patent US20050257279A1", "about": "“Agouti-related protein deficient cells, non-human transgenic animals and methods of selecting compounds which regulate energy metabolism” (priority 2002, published 2005)", "key": {"human ghrelin-R (GHSR1a) [1]": {"target": "T1, human ghrelin-R (GHSR1a) (Homo sapiens, UniProt Q92847)", "test": "125I-human ghrelin membrane binding assay", "settings": "read-out: 125I-human ghrelin binding IC50; COS-7 membranes expressing human GHSR1a; [His[125I]]-human ghrelin 0.1 nM"}, "human ghrelin-R (GHSR1a) [2]": {"target": "T1, human ghrelin-R (GHSR1a)", "test": "35S-MK-0677 membrane binding assay", "settings": "read-out: 35S-MK-0677 Binding IC50; COS-7 membranes expressing human GHSR1a; [35S]MK-0677 0.05 nM"}, "[3]": {"target": "human ghrelin receptor (GHSR1a) (Homo sapiens, UniProt Q92847)", "test": "Aequorin bioluminescence assay (intracellular calcium mobilization)", "settings": "read-out: Aequorin Function EC50; stable cell line expressing human GHSR1a and aequorin"}, "[4]": {"tested_on": "primary cultures of rat anterior pituitary cells", "test": "Rat pituitary growth hormone (GH) release", "settings": "read-out: Pituitary GH Release EC50, 15 min incubation"}, "[5]": {"test": "4-hour light-phase food intake in mice", "settings": "for effect on 4-hour food intake: versus saline"}, "[6]": {"settings": "Compound A 3 mg/kg PO, wild-type control mice"}}, "data": [{"smiles": "CN(C)C(=O)[C@@H]1CC2(CCN(C(=O)[C@@H](CCCc3ccccc3)NC(=O)C(C)(C)N)CC2)c2ccccc21", "values": [{"measurement": "IC50", "setting": "human ghrelin-R (GHSR1a) [1]", "value": 0.3, "unit": "nM"}, {"measurement": "IC50", "setting": "human ghrelin-R (GHSR1a) [2]", "value": 0.1, "unit": "nM"}, {"measurement": "EC50", "setting": "[3]", "value": 3.1, "unit": "nM"}, {"measurement": "EC50", "setting": "[4]", "value": 0.7, "unit": "nM"}, {"measurement": "effect on 4-hour food intake", "setting": "[5]; Compound A 3 mg/kg PO, NPY single knockout mice", "value": "greatly diminished"}, {"measurement": "4-hour daytime food intake", "setting": "[5]; Compound A 3 mg/kg PO, Npy-/- single knockout mice", "value": "0.17 ± 0.07", "unit": "g"}, {"measurement": "4-hour daytime food intake", "setting": "[5]; [6]", "value": "0.59 ± 0.06", "unit": "g"}, {"measurement": "stimulation of 4-hour daytime food intake versus saline", "setting": "[5]; [6]", "value": 4, "unit": "fold"}, {"measurement": "effect on 4-hour food intake", "setting": "[5]; Compound A 3 mg/kg PO, wild-type mice", "value": "significantly stimulated food intake"}, {"measurement": "effect on 4-hour light cycle food intake", "setting": "[5]; Compound A PO 1, 3, 10 and 20 mpk, C57B6 mice, versus vehicle", "value": "significantly stimulated"}, {"measurement": "dose giving maximum stimulation of feeding", "setting": "[5]; Compound A PO dose response, C57B6 mice", "value": 3, "unit": "mg/kg"}]}]}
